Here are results for one compound from the supplement of paper PMC9135407.

The entries are a selection whose mix differs from that of the whole data set.

This experiment concerns primary human hepatic stellate cells (donor 1). Nature of the experiment: scaled lipid accumulation score (0 = DMSO-like, 1 = nortriptyline-like); higher = stronger HSC inactivation (lipid re-accumulation), active = hit call of the paper. The note with it: library stock concentration: 10 mM; 48 h. On the procedure:
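Primary lipid accumulation screen in primary human hepatic stellate cell myofibroblasts (donor 1, passage 8) in 384-well plates. 100 nL of library compound was pin-transferred into 30 µL medium in duplicate, and cells were treated for 48 h. The 'Scaled' score combines distance from plate baseline, toxicity and reproducibility penalties, and is normalised to nortriptyline (positive) and DMSO (negative) controls on each plate. A hit is defined as scaled >0.85 or among the top 3 wells per plate.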
For the compound `Br.Br.N=C(NCCc1ccc(I)cc1)SCCCc1cnc[nH]1` [Iodophenpropit dihydrobromide], the “scaled lipid accumulation score” value was active: 1.67.
